From patent US11672800B2, “Combination therapies with EHMT2 inhibitors” (Epizyme, Inc., priority 2017, dated 2023) come the findings set out here.

This experiment concerns MeWo. The experiment in a line: In vitro combination study of Compound 205 with a second agent, melanoma cell proliferation (CellTiter Glo, Loewe synergy). Further: key: SYN Synergy; ADD Additivity. Format: cell-based. Conditions: combination with Compound 205, 7 days pre-treatment with Compound 205, then 7 days co-treatment, ATP content, Loewe volume >1 synergy, -1 to 1 additivity. How it is done:
On day 14 plates were developed for endpoint analysis using CellTiter Glo to measure ATP content, which was used as an indicator of cell viability. DMSO concentration was kept constant throughout the assay at 0.2% v/v.
All cells were maintained and cultured at 37° C., in a humidified atmosphere and 5% CO2.
Loewe volumes greater than 1 denoted synergy and volumes below −1 denoted antagonism. A value between −1 and 1 denoted additivity.

With `Nc1ncn([C@H]2C[C@H](O)[C@@H](CO)O2)c(=O)n1` [Decitabine], the “Combinatorial effect (Loewe method) of second agent with Compound 205, MeWo” value is recorded as “SYN”.

For the compound `C#Cc1cccc(Nc2ncnc3cc(OCCOC)c(OCCOC)cc23)c1` [Erlotinib, N-(3-ethynylphenyl)-6,7-bis(2-methoxyethoxy)quinazolin-4-amine], the “Combinatorial effect (Loewe method) of second agent with Compound 205, MeWo” value is listed as “SYN”.
